Rango-impB inh: qHTS Assay for Inhibitors of Rango (Ran-regulated importin-beta cargo) - Importin beta complex formation; AID 540263, 2011; Importin subunit beta-1 (Homo sapiens), Q14974; Potency, µM (highest dose often 92.2 µM), for the others: at the highest dose inhibition of complex formation; actives 0.031% (n = 340,000); Rango CFP/YFP FRET sensor + importin beta, 45 min;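 note: potency is the fitted concentration of half-maximal effect; 0% = DMSO wells and 100% = buffer wells lacking importin beta; nearly all actives have a fitted effect of over 15% in size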
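FRET biosensor Rango (snurportin 1 IBB between N-terminal EYFP and C-terminal Cerulean), 50 nM in PBS/1 mM DTT/0.02% Tween-20/0.1% BSA, preincubated 5 min RT with compound; 0.125 microM importin beta added, 45 min RT, CFP/YFP FRET ratio read.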
PKM2 activator: qHTS Assay for Activators of Human Muscle isoform 2 Pyruvate Kinase; actives 0.34% (n = 260,000); Potency, µM (series often up to 57.5 µM), for inactives: top-dose activation, most hits filed as activators; Pyruvate kinase PKM (Homo sapiens), P14618; purified PKM2, Kinase-Glo ATP luminescence, activation; response scale: 0% is enzyme alone, no compound; active = well fitted activation curve with a large enough effect; inconclusive = small, poorly fitted or top-dose-only effect; inactive = no such curve, though single readings can be large or run the other way; note: potency is the fitted concentration of half-maximal effect; % is set by controls: 0 for no effect and ±100 for the full control effect; nearly all actives have a fitted effect of over 55% in size
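hPK-M2, >95% pure; 0.1 mM ADP / 0.5 mM PEP final; imidazole pH7.2 buffer w/ 7 mM MgCl2, 50 mM KCl; 1 h RT; Kinase-Glo lum. Intermediate enzyme activity for dual inhibitor/activator qHTS.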
IL-2 act: qHTS of IL-2 Activators. IL-2 activation reporter assay, cell-based qHTS; stimulated with anti-CD3/CD4/CD28 beads; in transgenic mouse T cells. activation, % (series mostly up to about 46 µM). actives 0.065% (n = 360,000); in the data active = activation above about 50%; inconclusive = mostly about 30% to 49%; note: 0% is about no effect
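Unstimulated transgenic mouse T cells, 750 per well, received compound and, after 60 minutes, anti-CD3/anti-CD4 bead plus anti-CD28 stimulation. EGFP and DsRed were quantified after 18 hours.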
Rango dissoc inh: qHTS Assay for Inhibitors of RanGTP induced Rango (Ran-regulated importin-beta cargo) - Importin beta complex dissociation; AID 540253, 2011; Potency, µM (titrated, usually from 46.1 µM), for inactives: top-dose activity change, negative = inhibition; actives 0.071% (n = 340,000); Biochemical FRET Rango-importin beta, RanGTP-induced dissociation; note: potency is the fitted concentration of half-maximal effect; % of control where 0% means no effect; nearly all actives have a fitted effect of over 45% in size
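Two FRET readings bracket the reaction: one 5 min after compound meets Rango–importin beta, another 45 min after RanGTP-RCC1 (0.6 uM Ran, 0.2 uM RCC1, 2 mM GTP) is added. Only the second defines inhibition.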
AT treatment: qHTS Assay for Identifying a Potential Treatment of Ataxia-Telangiectasia; AID 485349, 2010; F2112 A-T fibroblasts, KAP-1 phosphorylation AlphaLISA; neocarzinostatin DNA damage 30 min before lysis; Potency, µM (highest dose often 57.5 µM), for inactives: at the top dose activation, actives largely listed as activators; actives 0.19% (n = 320,000); active = well fitted activation curve with a large enough effect; inconclusive = small, poorly fitted or top-dose-only effect; inactive = no such curve, though single readings can be large or run the other way; note: potency is the fitted concentration of half-maximal effect; % of control where 0% means no effect; nearly all actives have a fitted effect of over 45% in size
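hTERT-immortalized A-T patient fibroblasts (F2112), 500 cells/well in OPTI-MEM, 1% FBS, got compounds for 60 min, then NCS for 30 min at 37C. Lysates were then assayed for phospho-KAP-1 by AlphaLISA (anti-pKAP1 donor, anti-KAP1 acceptor beads), 6 hr at 25C.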
Numbers without * were called inactive; ? = inconclusive; / = not tested or not shown. This is a sample that favours compounds with a hit; in the whole collection about 0.59% have one here. Unless noted, calls come from the whole dose curve.

By UniProt entry, the sequences of proteins in these tests, tags left out.
Importin subunit beta-1 (Homo sapiens), Q14974, UniProt Q14974, whole entry, looked up: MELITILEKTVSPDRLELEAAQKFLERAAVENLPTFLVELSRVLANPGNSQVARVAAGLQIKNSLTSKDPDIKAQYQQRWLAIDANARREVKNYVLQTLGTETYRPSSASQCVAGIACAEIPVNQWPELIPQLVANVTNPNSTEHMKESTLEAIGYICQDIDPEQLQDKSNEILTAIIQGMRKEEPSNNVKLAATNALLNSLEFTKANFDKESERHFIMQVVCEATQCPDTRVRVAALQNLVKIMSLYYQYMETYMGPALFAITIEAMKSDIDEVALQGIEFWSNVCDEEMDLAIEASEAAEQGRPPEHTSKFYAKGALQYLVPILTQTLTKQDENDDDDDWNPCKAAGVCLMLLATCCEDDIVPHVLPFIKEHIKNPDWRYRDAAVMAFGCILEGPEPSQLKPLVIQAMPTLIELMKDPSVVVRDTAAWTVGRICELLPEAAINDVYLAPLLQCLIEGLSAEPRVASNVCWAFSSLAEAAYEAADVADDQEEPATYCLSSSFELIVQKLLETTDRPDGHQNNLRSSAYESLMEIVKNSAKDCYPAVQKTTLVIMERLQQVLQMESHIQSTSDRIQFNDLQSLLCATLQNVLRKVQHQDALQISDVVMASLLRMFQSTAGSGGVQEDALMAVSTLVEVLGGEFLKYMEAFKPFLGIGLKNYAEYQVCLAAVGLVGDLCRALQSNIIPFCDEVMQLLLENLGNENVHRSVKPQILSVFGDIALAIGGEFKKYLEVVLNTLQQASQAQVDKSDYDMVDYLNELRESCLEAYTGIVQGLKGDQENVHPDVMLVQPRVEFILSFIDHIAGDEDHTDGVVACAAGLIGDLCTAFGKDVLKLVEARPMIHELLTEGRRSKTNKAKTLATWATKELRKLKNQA
Pyruvate kinase PKM (Homo sapiens), P14618, UniProt P14618, whole entry, looked up: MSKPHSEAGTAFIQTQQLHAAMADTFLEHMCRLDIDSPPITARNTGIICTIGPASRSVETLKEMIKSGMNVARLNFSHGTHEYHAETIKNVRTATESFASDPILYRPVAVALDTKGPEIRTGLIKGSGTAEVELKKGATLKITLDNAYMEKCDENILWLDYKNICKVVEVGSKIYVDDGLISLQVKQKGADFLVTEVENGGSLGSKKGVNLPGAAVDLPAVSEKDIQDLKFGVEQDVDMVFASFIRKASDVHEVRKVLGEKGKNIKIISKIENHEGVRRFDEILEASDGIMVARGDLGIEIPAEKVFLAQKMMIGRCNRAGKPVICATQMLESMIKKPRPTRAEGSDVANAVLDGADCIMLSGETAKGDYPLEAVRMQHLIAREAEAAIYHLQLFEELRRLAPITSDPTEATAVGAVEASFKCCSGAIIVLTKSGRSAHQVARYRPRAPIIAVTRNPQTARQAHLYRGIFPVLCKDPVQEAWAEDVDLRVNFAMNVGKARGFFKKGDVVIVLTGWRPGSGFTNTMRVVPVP

Abbreviations – A = Rango-impB inh; B = PKM2 activator; C = IL-2 act; D = Rango dissoc inh; E = AT treatment
[1] CCN(CC)C1CCN(Cc2c(C(=O)N3CCCCCCC3)nc3ccc(Cl)cn23)C1 (stereo unspecified)
  A = -4% | B = -4% | C = 1 | D = -3% | E = 10%
[2] C(=C\c1ccccc1)/CN1CCN(C(c2ccnc3ccccc23)c2nnnn2C2CCCC2)CC1 (stereo unspecified)
  A = / | B = / | C = -1 | D = / | E = /
[3] Cc1cc(=O)oc2cc(NS(=O)(=O)c3ccc(F)cc3)ccc12
  A = ? | B = ? | C = -4 | D = ? | E = 4%
[4] Cc1cc(=O)oc2cc(NS(=O)(=O)c3ccccc3)ccc12
  A = -11% | B = 16µM* | C = -3 | D = 16µM* | E = 8%
[5] C=CCN1C(=O)/C(=C/C(=O)OC)S/C1=N\NC(=O)c1ccccc1
  A = 5% | B = 22% | C = -2 | D = -12% | E = 10µM*
[6] C=CCn1c(C)c(C(C)=O)cc(NC(=O)c2ccccc2)c1=O
  A = 3% | B = 0% | C = 9 | D = -17% | E = 3%
[7] O=C(CCc1ccccc1)Nc1nc2n(n1)C(c1ccc(Cl)cc1)CC(=O)N2 (stereo unspecified)
  A = -1% | B = -2% | C = 1 | D = 14% | E = -1%
[8] O=C(CCc1ccccc1)Nc1nc2n(n1)C(c1ccccc1)CC(=O)N2 (stereo unspecified)
  A = 0% | B = -15% | C = 0 | D = 4% | E = 32µM*
[9] N#CC(=C1NC(=O)c2ccccc21)c1nc2ccccc2n1CCO
  A = / | B = / | C = -4 | D = / | E = /
[10] CCCNC(=O)C1(C)CCN(C(=O)c2c(F)ccc(C)c2F)C1 (stereo unspecified)
  A = / | B = / | C = 0 | D = / | E = /
[11] O=C(O)c1sccc1Oc1ccc(NS(=O)(=O)c2cccc(F)c2)cc1
  A = 0% | B = / | C = 3 | D = -4% | E = 45µM*
[12] O=C(Nc1ccc(Oc2ccsc2C(=O)O)cc1)c1ccccc1
  A = 0% | B = / | C = 0 | D = -3% | E = 50%
[13] COc1ccc(S(=O)(=O)N2CCOCC2)cc1C(=O)N(C)CCOc1ccc(Cl)cc1
  A = -4% | B = / | C = 0 | D = 16% | E = 7%
[14] Cc1ccc(S(=O)(=O)N2CCOCC2)cc1C(=O)N(C)CCOc1ccc(Cl)cc1
  A = 7% | B = 8% | C = 0 | D = -3% | E = 22µM*
[15] COc1ccc(C2c3ccc(O)cc3Oc3ncn(CC(C)C)c(=N)c32)cc1 (stereo unspecified)
  A = ? | B = -16% | C = -2 | D = ? | E = 2.8µM*

Entries of single compounds, looked up by structure.
`COc1ccc(C2c3ccc(O)cc3Oc3ncn(CC(C)C)c(=N)c32)cc1` (stereo unspecified) in the list: Rango-impB inh: ?; PKM2 activator: -16%; IL-2 act: -2; Rango dissoc inh: ?; AT treatment: 2.8µM*
`O=C(CCc1ccccc1)Nc1nc2n(n1)C(c1ccc(Cl)cc1)CC(=O)N2` (stereo unspecified) in the list: Rango-impB inh: -1%; PKM2 activator: -2%; IL-2 act: 1; Rango dissoc inh: 14%; AT treatment: -1%

Other results follow:
Abbreviations – A = Rango-impB inh; B = PKM2 activator; C = IL-2 act; D = Rango dissoc inh; E = AT treatment
[16] COc1cc(C#Cc2c(C=O)n(C)c3ccccc23)cc(OC)c1
  A = ? | B = / | C = 51* | D = ? | E = ?
[17] C=CCN1C(=O)/C(=C2/Sc3ccc(OC)cc3N2CC)SC1=S
  A = ? | B = 3% | C = 189* | D = ? | E = -8%
[18] CCCCN1C(=O)/C(=C2/Sc3ccc(OC)cc3N2CC)SC1=S
  A = ? | B = -2% | C = 118* | D = ? | E = 1%
[19] CCN1/C(=C2/SC(=S)N(NC(C)=O)C2=O)Sc2ccc(OC)cc21
  A = ? | B = 13% | C = 1 | D = ? | E = -16%
[20] C=CCN1C(=O)/C(=C2/Sc3ccc(OC)cc3N2C)SC1=Nc1ccc(OC)cc1
  A = / | B = 1% | C = / | D = / | E = 9%
[21] O=C1N=C(N2CCOCC2)S/C1=C\c1cccs1
  A = -1% | B = -19% | C = 2 | D = 8% | E = 4%
[22] C=CCn1cc(/C=C2\SC(N3CCOCC3)=NC2=O)c2ccccc21
  A = ? | B = 0% | C = -1 | D = 16µM* | E = 11%
[23] COc1ccc([C@H]2CC(=O)C=C(c3ccc(Cl)c(C(F)(F)F)c3)C2)cc1
  A = -1% | B = / | C = 4 | D = 10% | E = 3%
[24] Cc1cc(NC(=O)CSc2ncn(-c3ccccc3)n2)no1
  A = 0% | B = 25µM* | C = 1 | D = 6% | E = -5%
[25] Cc1cc(NC(=O)CSc2ncccn2)no1
  A = -4% | B = 7% | C = 1 | D = -8% | E = -4%
[26] O=C1CCC(O)CCN1CCSc1ccccc1 (stereo unspecified)
  A = -2% | B = 1% | C = -2 | D = 28% | E = 3%
[27] COC(=O)c1c(-c2ccc(N(C)C)cc2)sc2ccc(OC)cc12
  A = ? | B = / | C = 0 | D = ? | E = 25µM*
[28] O=c1oc2c(CN3CCCCCC3)c(O)ccc2cc1-c1nc2ccccc2[nH]1
  A = / | B = -5% | C = / | D = / | E = 16µM*
[29] CC(=O)C1=C(C)NC(SCc2cccc([N+](=O)[O-])c2)=C(C#N)C1c1ccco1 (stereo unspecified)
  A = -2% | B = 7.9µM* | C = -6 | D = 9% | E = 0%
[30] C=CCn1c(=N)n(CC(=O)c2ccc(Cl)cc2)c2ccccc21
  A = ? | B = / | C = -2 | D = -2% | E = 16µM*
[31] N=c1n(CCN2CCCCC2)c2ccccc2n1CC(=O)c1ccc(Cl)c(Cl)c1
  A = 1% | B = 1% | C = 2 | D = -6% | E = 35µM*
[32] N=c1n(CCN2CCCCC2)c2ccccc2n1CC(O)c1ccc(Cl)c(Cl)c1 (stereo unspecified)
  A = 1% | B = -2% | C = -1 | D = 4% | E = 0%
[33] CCn1c(=N)n(CC(=O)c2ccc(Cl)c(Cl)c2)c2ccccc21
  A = -3% | B = / | C = 2 | D = 5% | E = 28µM*
[34] COc1ccccc1NS(=O)(=O)c1cc2c3c(c1)CCN3C(=O)CC2
  A = 2% | B = / | C = -3 | D = 9% | E = -4%
[35] Cc1ccc(OC(=O)c2ccc3nc(C)sc3c2)cc1
  A = ? | B = 5% | C = 394* | D = ? | E = -3%
[36] COc1ccc(NC(=O)CSc2ccccc2)cc1S(=O)(=O)N1CCCCC1
  A = 23µM* | B = 1% | C = 1 | D = 0% | E = 6%
[37] COc1ccc(NC(=O)CSc2ccc(NC(C)=O)cc2)cc1S(=O)(=O)N1CCCCC1
  A = -4% | B = 2% | C = 0 | D = 5% | E = 4%
[38] Cn1c(SCc2cccnc2)nc2c(c1=O)SCC2
  A = ? | B = 28µM* | C = 0 | D = 29% | E = 9%
[39] CC(O)(c1cccnc1)c1nc(-c2cccc3cccnc23)cs1 (stereo unspecified)
  A = / | B = / | C = 0 | D = / | E = /
[40] NC(=O)CC(NC(=O)Cc1ccc(Br)cc1)c1ccc(NC2CCN(Cc3ccccc3)CC2)c([N+](=O)[O-])c1 (stereo unspecified)
  A = 52µM* | B = -11% | C = 0 | D = 0% | E = 4%
[41] NC(=O)CC(NC(=O)Cc1cccc2ccccc12)c1ccc(NC2CCN(Cc3ccccc3)CC2)c([N+](=O)[O-])c1 (stereo unspecified)
  A = 2% | B = 0% | C = 0 | D = -3% | E = 12%
[42] COc1ccccc1S(=O)(=O)N1CCN(S(=O)(=O)c2cccs2)CC1
  A = 0% | B = / | C = 1 | D = 6% | E = -11%
[43] COc1ccccc1S(=O)(=O)N1CCN(S(=O)(=O)c2ccccc2C#N)CC1
  A = -1% | B = 2µM* | C = -1 | D = 1% | E = -6%
[44] CCOC(=O)Cn1cc(C=O)c2ccccc21
  A = -1% | B = -7% | C = -1 | D = 2% | E = 8%
[45] CCN(CC)C(=O)Cn1c(C)c(/C=C/c2cc[n+](C)cc2)c2ccccc21
  A = ? | B = 0% | C = 115* | D = ? | E = -4%
